Each structure is given as a SMILES string. This is a selection; strong and weak results do not stand in their true shares. The source made the active and inactive calls. Rule as the data show it: active = inhibition above about 10%; inactive = the rest.

The values that follow come from PubChem BioAssay AID652162 (Broad Institute, 2013).

In the experiment the target is Toxin B (Clostridioides difficile) (UniProt P18177). Nature of the experiment: TcdB glycohydrolase inhibitors, primary screen, biochemical, single point, plate reader (AID 652162). The following applies: TcdB glycohydrolase enzymatic assay, at 9.99 µM, hits give high values.
Consider `CCC(=O)N(c1ccccc1)C1(COC)CCN(CCc2cccs2)CC1`, for which the inhibition – broadly, the change of the read-out against control, counted positive when it falls – was inactive: 0.026%.

For `CCC(=O)N(c1ccccc1)C1(COC)CCN(CCn2nnn(CC)c2=O)CC1`, the inhibition is inactive: -0.962%.
